## Apparent affinities of Ab-14 variants for a coronavirus HR2 peptide

From the AlphaSeq antibody data of Li et al. 2023 (doi:10.1038/s41467-023-39022-2), copy in the FLAb collection.

Binding partner: SARS-CoV-2 spike HR2 peptide, sequence PDVDLGDISGINAS.

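The starting antibody came from a phage panning campaign against this peptide. These sequences belong to a second round, designed from the earlier measurements on random variants of the parent. Their group label is 14L_En_Gibbs (En: ensemble of fine-tuned language models; Gibbs: Gibbs sampling). Affinity was read by AlphaSeq, a pooled yeast mating assay with surface-displayed partners. Mating (16 h, 30 °C) was followed by selection of diploids and sequencing of their barcodes. The ratio of observed to expected reads was calibrated, replicate by replicate, on BCL2-family standards whose Kd was known from biolayer interferometry. The assay was run in six technical replicates.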

Each scFv is VH, a 15-residue (Gly4Ser)3 linker, VL, as in the parent Ab-14, and differs from it in the CDRs of the light chain only.
VH: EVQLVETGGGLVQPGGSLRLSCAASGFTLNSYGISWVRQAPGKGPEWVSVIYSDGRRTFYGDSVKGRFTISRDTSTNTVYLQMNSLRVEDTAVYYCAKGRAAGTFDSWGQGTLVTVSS
VL: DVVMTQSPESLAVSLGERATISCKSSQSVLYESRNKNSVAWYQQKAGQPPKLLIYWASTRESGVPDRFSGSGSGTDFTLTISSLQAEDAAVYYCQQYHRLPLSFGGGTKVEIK

The parent's light chain CDRs are KSSQSVLYESRNKNSVA, WASTRES, QQYHRLPLS; each variant's own CDRs replace them letter for letter. The read-out is the apparent dissociation constant on a log10 scale (nM): the lower, the stronger. A pair that was not seen in that replicate is written "n.d."; this usually means weak binding, but a binder can also be missed. A sequence measured in both rounds can read differently, since the two assays cover different ranges. The authors averaged sequences with at least three values out of six and counted those with two or fewer as poor binders. Empty control strains, which show no peptide, gave a signal in 4% of pairings with all light chain designs; the median was 2.64 and 95% of these signals were weaker than 1.59. No background was subtracted. Also given: how often the same scFv was detected with the empty control strains, with their mean in brackets. The parent sequence was in this pool as ten entries: three were never detected, three once, and four in most replicates, with averages from 0.34 to 2.37.

CDR-L1,CDR-L2,CDR-L3,log10 Kd (nM) by replicate,control signals
KLGGEQYSSTYEMDNVA,DVNTTYE,QHYSRLPLT,1.34 1.76 0.67 1.19 2.81 2.03,1/18 (1.57)
TFDQMGKQYGMNTNSVA,AGNIVRI,QQYSRLPFS,1.33 0.65 0.82 0.56 0.83 0.86,2/18 (4.14)
KVQNHSSGTLNDKNAVA,EDKNAAV,QQYVRLPLI,n.d. 2.11 n.d. 2.55 1.87 3.01,1/18 (2.49)
KLQNQMWTMGKQNQAIA,QGAITRV,QQYQHLPLW,2.60 1.92 1.52 1.18 2.40 1.98,0/18
NITQQGDAMGDQRANVA,NGETLEH,QQYAHLPLL,1.05 0.71 0.61 0.85 0.35 0.85,0/18
MLTWGDDHTTGHQNAIA,HAHERNT,QQYAQLPLT,2.91 1.81 n.d. 1.07 1.62 n.d.,1/18 (2.53)
FFSLIQDSYGEANNSIA,ERNTKAP,QQYSRLPLV,1.66 2.97 2.39 2.06 1.63 2.52,0/18
RIKCRSLEHGGQNNAIA,AAAKLVT,QQYARLPLA,0.92 0.42 0.23 0.86 0.30 0.20,0/18
RVQQWSGHSDMHWKSIA,SASLRAQ,QQYARLPLE,1.22 1.23 0.90 1.42 1.46 0.99,1/18 (2.72)
AISEHAFYGQRDENAIA,GADVRAK,QQYWRLPLT,0.62 0.43 0.47 0.27 0.55 0.63,3/18 (4.23)
KLPHLSFVHDRMKNNVA,DLNRKAA,QQYNRLPLT,0.44 0.33 0.11 0.21 0.34 0.20,0/18
MLDMAELGYSQLSSSVA,GSANKCQ,QQYFRLPLS,0.59 0.44 0.02 0.22 0.19 0.35,1/18 (3.27)
MISVMEAPAGQQESSIA,HGGTKSE,QQYNRLPLA,1.40 1.50 0.97 1.12 1.53 1.73,0/18
RLLDWAYNLTAKDSNIA,DSDISGS,QQYSHLPLA,0.70 1.35 1.52 n.d. 0.58 2.27,1/18 (1.33)
NIVGRAQMQDSGRQAIA,NAHARCT,QQYFHLPLT,0.77 0.42 0.52 0.63 0.36 0.85,1/18 (3.11)
HITDLMYFGNEGEKNIA,DKNISVM,QQYFRLPLS,0.54 0.42 -0.07 0.12 0.64 0.58,0/18
QIAGKLQHGGNQGDNIA,QGVETKN,QQYYTLPLT,n.d. n.d. n.d. n.d. n.d. n.d.,0/18
SLAYTQHFGQAGGKAVA,EVQMRCQ,QQYFRLPLG,n.d. n.d. n.d. n.d. n.d. n.d.,0/18
KVGAYPQGVEQDMQNVA,EGSYASR,QQYHRLPLS,0.96 0.88 1.28 0.68 0.59 0.95,1/18 (1.61)
QLNEYKHETMAKTQNIA,DMTIRED,QQYAHLPLA,0.19 -0.11 -0.07 -0.38 -0.45 0.10,0/18
SMAYFQVFGNQQEKAIA,EVATREQ,QQYFRLPLT,n.d. 1.32 0.84 n.d. 1.71 1.22,0/18
KFMYSLEYQMHEQNNIA,HGNIKTV,QQYSRLPIY,0.99 1.05 0.87 1.08 0.72 0.80,2/18 (3.07)
KLRDQADGWTRNERNIA,DADHRGA,QQYSHLPLC,0.02 -0.03 -0.09 -0.03 0.03 0.28,1/18 (2.22)
KLKYQADQYGMQWNNVA,HADIRAP,QQYSKLPLN,0.66 0.22 0.30 0.17 0.19 0.29,3/18 (3.52)
MLSMMEQHMGDMMHNVA,DANVAKM,QDYFRLPLM,n.d. n.d. n.d. n.d. n.d. n.d.,0/18
YLDSGDVDGQKSKESIA,DADHSGA,QQYARLPLG,n.d. n.d. 0.93 n.d. 1.97 n.d.,0/18
HLELEEMQMMKDINSIA,DTEHKTR,QQYFRLPIS,0.80 0.71 0.51 0.17 0.75 0.85,0/18
QLSLMLNDMDTRMWAVA,EGNQAKE,QDYHRLPLM,1.49 n.d. n.d. n.d. n.d. n.d.,0/18
MLKMENEEFNQDKHSVA,EAVEKES,QQYHRLPII,0.75 2.05 1.36 1.94 0.84 2.02,0/18
RLRELNFYSGNGRNNIA,DAHIHEV,QQYSQLPLF,0.43 0.23 0.33 0.56 0.29 0.41,0/18
KFSQSKEMVNKEGESIA,GSHTIQE,QQYSRLPLA,0.56 0.61 0.93 0.17 0.88 0.28,1/18 (1.73)
KLGQESYNSTYAMDAVA,DQNTADE,QHYSRLPLT,n.d. n.d. n.d. n.d. n.d. n.d.,0/18
HLSFPWQSGHDSTNAVA,NDSTLMT,QSYNRLPLS,2.41 1.87 n.d. 1.97 n.d. n.d.,1/18 (2.03)
MLDNCQAGYYQKNNNVA,EMNIRCY,QQYGRLPLM,n.d. n.d. n.d. n.d. 1.62 n.d.,0/18
NLRGVEFESAMMGNAVA,DMSAVMA,QQYFMLPLH,n.d. 2.05 n.d. 3.09 n.d. 2.07,0/18
NMKVGLNFEDINHQAIA,SVDEREK,QQYHRLPLQ,1.47 0.94 0.63 0.85 0.70 0.66,0/18
KLQNFSQEYNKMWNNIA,DMTMKHT,QQYNRLPLV,0.41 0.28 0.18 -0.03 0.02 0.41,2/18 (2.45)
MLRFDITDGQKNWNNIA,ETSELGA,QQYMHLPLG,0.24 0.05 0.10 0.04 -0.13 0.27,0/18
HVELGTWGVQKYDSSVA,HASQRQE,QQYYQLPLT,-0.03 -0.17 0.44 -0.55 0.22 0.18,0/18
SMGWAHENGDNKMNNIA,DETHLAY,QQYSRLPIT,0.69 0.32 0.58 0.66 0.00 0.69,1/18 (2.08)
YLSINEVSDSNNVSQVA,EAETSVA,QQYHHLPLI,1.18 1.18 0.79 1.01 1.38 1.40,1/18 (2.92)
ALFQKGFELHGDRQSIA,HSDTRAA,QQYSRLPLA,0.12 -0.06 -0.25 -0.11 0.02 0.49,1/18 (2.97)
NLVEMEGTNQTKHGNIA,SVDQRMS,QQYQRLPLI,1.25 1.03 1.57 1.35 1.31 1.42,2/18 (2.40)
RLSVNLDAGNISTNAIA,EGKSLEQ,QQYMRLPLG,n.d. n.d. 0.68 -0.86 n.d. 0.45,0/18

The opening 6 entries, copied out:

| CDR-L1 | CDR-L2 | CDR-L3 | log10 Kd (nM) by replicate | control signals |
|---|---|---|---|---|
| KLGGEQYSSTYEMDNVA | DVNTTYE | QHYSRLPLT | 1.34 1.76 0.67 1.19 2.81 2.03 | 1/18 (1.57) |
| TFDQMGKQYGMNTNSVA | AGNIVRI | QQYSRLPFS | 1.33 0.65 0.82 0.56 0.83 0.86 | 2/18 (4.14) |
| KVQNHSSGTLNDKNAVA | EDKNAAV | QQYVRLPLI | n.d. 2.11 n.d. 2.55 1.87 3.01 | 1/18 (2.49) |
| KLQNQMWTMGKQNQAIA | QGAITRV | QQYQHLPLW | 2.60 1.92 1.52 1.18 2.40 1.98 | 0/18 |
| NITQQGDAMGDQRANVA | NGETLEH | QQYAHLPLL | 1.05 0.71 0.61 0.85 0.35 0.85 | 0/18 |
| MLTWGDDHTTGHQNAIA | HAHERNT | QQYAQLPLT | 2.91 1.81 n.d. 1.07 1.62 n.d. | 1/18 (2.53) |